One test deals with T1, His-Hsp20 (Homo sapiens, UniProt O14558).
T1 construct: made in house; host or cells: E. coli BL21
T1 sequence (O14558 1-160): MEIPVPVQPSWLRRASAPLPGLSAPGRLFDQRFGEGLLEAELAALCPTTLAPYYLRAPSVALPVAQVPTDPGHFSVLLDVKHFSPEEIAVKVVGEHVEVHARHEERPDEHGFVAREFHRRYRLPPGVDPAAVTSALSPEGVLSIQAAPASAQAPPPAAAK
Kind of test: SPOT peptide array overlaid with His-Hsp20. It counts as binding. As to conditions: overlay with 10 μg/ml purified His-Hsp20. The method, then: A variety of peptides were generated and SPOT-synthesised onto slides which were then overlaid with 10 μg/ml of purified His-Hsp20. Interaction with peptides and Hsp20 was evaluated by probing slides with anti-His or Hsp20 antibodies and analysed using enhanced chemi-luminescence techniques, Negative controls used anti-His antibody only with no overlay of His-Hsp20 protein (data not shown). Positive interaction domains were then subjected to further rounds of truncations and key endogenous residues were substituted for non-native residues to ascertain what effects this would have in the binding of Hsp20.
This was done as described in detail elsewhere^41.
PDE4 isoform localisation invariably depends on protein-protein interactions, with PDE4s shown to associate with a diverse group of interacting partners such as RACK1^32, 36, βarrestin^36, β1-Ar^37, DISC1^38, the p75 neurotrophin receptor^39 and the cardiac IKs potassium channel^40. One method that has been pivotal in mapping the sites of association between PDE4s and their binding partners is peptide array^36. SPOT immobilised peptide libraries of PDE4 sequences have been utilised to accurately predict binding domains for partner proteins. Here we have employed this novel technique to define the HSP20 binding site within the sequence of PDE4D5, an isoform that is endogenously expressed in cardiomyocytes. […]

The test system of test [1] is pS16-Hsp20 in SH-SY5Y cells. Kind of test: Cell based Hsp20-PDE4D disruptor assay, nucleofected SH-SY5Y cells, pS16-Hsp20 Western blot. The settings on record: SH-SY5Y cells nucleofected with 500 μM peptide, 2 hours. Also on record: species or system human. The method, then:
FIG. 9. Disrupter induced HSP20 phosphorylation SH-SY5Y cells nucleofected with 500 μM of each peptide and incubated for 2 hours prior to harvesting. Each assay was blotted for Hsp20, pS16-Hsp20 and tubulin. Changes in levels of phospho-Hsp20 relative to DMSO only controls were quantified through densitometry analysis and each assay was normalised to α-tubulin loading control. The results are the average of three separate experiments and error bars represent SEM. *=p<0.05, **=p<0.01 compared to DMSO only controls (Student-T-test)
SDS-PAGE analysis was done on NuPage® pre-cast gels X-cell apparatus (Invitrogen, Paisley) using MES-SDS running buffer, Samples were reduced in Laemmli 2× loading buffer (4% SOS) with 5% β-mercaptoethanol. For Western Blotting (WB) analysis, samples were transferred using NuPage® X-cell blotting module onto a nitrocellulose membrane. Membranes were blocked using 5% Milk in 1×TBST (w/v). Antibodies were incubated in 1% milk in 1×TBST (w/v) for either 1 hour at room temperature or overnight at 4° C. Signals were detected using enhanced chemiluminescence system (Pierce) and developed on an X-omat film developer. Subsequent densitometry analysis was carried out using Quantity One (Bio-Rad). […]
(In general: A western blot detects proteins with antibodies after separation by electrophoresis.)

With Ac-TK-NH2 [Peptide 8], the “binding of Hsp20 to peptide on array” value in the test with His-Hsp20 is reported as “still retaining the ability to bind Hsp20”. Moreover, in test [1], the “pS16-Hsp20 levels relative to DMSO only controls” value is listed as “significant increase in pS16-Hsp20 levels”.

For the origin of these results see patent publication US20130209439A1, “INHIBITORS OF PDE4 BINDING TO HSP20” (THE UNIVERSITY COURT OF THE UNIVERSITY OF GLASGOW, priority 2010, published 2013).
